Legend:
PAR4 [1] = target: T1, PAR4 (Homo sapiens (Human), UniProt Q96RI0); assay: Gamma thrombin induced platelet aggregation assay (PRP assay); format: cell-based; details: human platelet rich plasma, 96-well microplate
Method: Platelet aggregation can be monitored in a 96-well microplate aggregation assay format or using standard platelet aggregometer.
The platelet rich plasma was isolated by centrifugation at 170 g for 14 minutes.
The ability of the compounds of the current invention to inhibit platelet aggregation induced by gamma-thrombin was tested in a 96-well microplate aggregation assay format. Briefly, PRP or washed platelet suspension (100 μl) was pre-incubated for 5 minutes at room temperature with varying concentrations of compounds. Aggregation was initiated by ˜10-50 nM gamma thrombin (Haematologic Technologies, Essex Junction, Vt.), which was titrated daily to achieve 80% platelet aggregation. Refludan at 1 U/mL (Berlex, Montville, N.J.) was added to the gamma thrombin sample to prevent PAR1 activation induced by residual alpha-thrombin contamination. The plate was then placed into a 37° C. Molecular Devices (Sunnyvale, Calif.) SPECTRAMAX® Plus Plate Reader. […] The plate also included an untreated control sample which served as ODmax, while buffer containing no platelets was the ODmin. Platelet aggregation was determined by subtracting the ODmax from the ODmin for the 100% aggregation value. […] IC50 values are determined using Excel Fit software.

Amino acid sequences for entries named in this document (tags omitted). Residues count along the entry.
UniProt Q96RI0, 18-385: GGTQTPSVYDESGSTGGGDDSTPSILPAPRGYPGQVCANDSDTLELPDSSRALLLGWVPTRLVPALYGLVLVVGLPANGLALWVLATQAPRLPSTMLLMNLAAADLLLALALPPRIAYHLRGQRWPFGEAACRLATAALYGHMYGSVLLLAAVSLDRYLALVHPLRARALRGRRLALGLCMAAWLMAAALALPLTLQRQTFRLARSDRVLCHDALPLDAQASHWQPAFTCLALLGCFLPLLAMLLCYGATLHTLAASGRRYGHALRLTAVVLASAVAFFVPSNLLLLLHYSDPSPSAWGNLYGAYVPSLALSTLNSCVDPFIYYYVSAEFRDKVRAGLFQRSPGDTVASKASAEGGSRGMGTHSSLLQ

PAR4 [2] = target: T1, PAR4; assay: FLIPR assay in PAR4-expressing HEK293 cells (PAR4 antagonist activity, calcium mobilization); format: cell-based; details: H-Ala-Phe(4-F)-Pro-Gly-Trp-Leu-Val-Lys-Asn-Gly-NH2-induced calcium mobilization
Text: The FLIPR assay is an exemplary in vitro assay for measuring the activity of the PAR4 antagonists of the present invention. In this assay, intracellular calcium mobilization is induced in PAR4 expressing cells by a PAR4 agonist and calcium mobilization is monitored. See, e.g., Example A.
HEK293 cells stably expressing PAR4 were generated by a standard method of transfection of human […] cDNA expression vector or by RAGE technology from Athersys Inc. (Cleveland, Ohio) and selected based on PAR4 protein expression of mRNA expression. […] These cells express endogenous PAR1 and can elicit calcium signal upon stimulation with PAR1 agonist peptide.
Counter screens for agonist activity and PAR1 antagonist activity were also performed. Briefly, HEK293 EBNA PAR4 clone 20664.1J cells were plated 24 hrs. prior to experiment in 384 well, Poly-D-Lysine coated, black, clear bottom plates (Greiner Bio-One, Monroe, N.C.). Cells were plated at 20,000 cells/well in […] growth medium and incubated at 37° C. with 5% CO2 overnight. At time of assay, media was replaced with 40 μl 1× Hank's Buffered Saline Solution (HBSS) (with 10 mM HEPES) and 20 μl test compound also diluted in 1×HBSS buffer was added at various concentrations and 0.67% DMSO final concentration on the FDSS for agonist measurement. […]

With `COc1cc(OCc2csc(-c3ccc(C(=O)N(C)CC#N)cc3)n2)c2cc(-c3cn4nc(OC)sc4n3)oc2c1` [Example 288] the IC50 (PAR4 [1]) was 1 nM and the EC50 (PAR4 [2]) was 0.36 nM.
